# From patent US10775391B2, “Nervous system-specific transmembrane proteasome complex that modulates neuronal signaling through extracellular signaling via brain activity peptides” (THE JOHNS HOPKINS UNIVERSITY, priority 2015, dated 2020)
# How the values were obtained:
# [1] = test system: neuronal cell membranes; conditions: neurons treated with biotin-epoxomicin, cytosolic and membrane fractions
# [2] = test system: cortical neuronal cultures; conditions: 5 minutes of treatment
substance,measurement,setting,value
biotin-epoxomicin,membrane permeability (ability to cross neuronal cell membranes),[1],membrane-impermeable
same,biotin at plasma membranes (immunogold particles),[2],91±5%
